Test results as given in PMC8589634 (The Journal of Prevention of Alzheimer's Disease, 2021).

Legend:
[1] = system: patients treated with aducanumab; conditions: cited from earlier work
[2] = system: patients treated with aducanumab; experiment: Aducanumab ARIA and amyloid PET; assay type: in vivo, human; conditions: one patient, 44 months, 31 infusions, cumulative dose 124mg/kg

**Q.** Which results are given for “aducanumab: anti-amyloid monoclonal antibody”?
**A.** ARIA-E incidence, APOE ε4 carriers ([1]; 10 mg/kg): 42%; ARIA-E incidence, non-carriers ([1]; 10 mg/kg): 20%; ARIA-E incidence ([1]; trial participants receiving 10 mg/kg): 35%; asymptomatic ARIA episodes [2]: 6
